{"sequences": {"note": "Protein sequences, listed by entry. Tags and fused reporters are not part of them.", "UniProt P30994, whole entry": "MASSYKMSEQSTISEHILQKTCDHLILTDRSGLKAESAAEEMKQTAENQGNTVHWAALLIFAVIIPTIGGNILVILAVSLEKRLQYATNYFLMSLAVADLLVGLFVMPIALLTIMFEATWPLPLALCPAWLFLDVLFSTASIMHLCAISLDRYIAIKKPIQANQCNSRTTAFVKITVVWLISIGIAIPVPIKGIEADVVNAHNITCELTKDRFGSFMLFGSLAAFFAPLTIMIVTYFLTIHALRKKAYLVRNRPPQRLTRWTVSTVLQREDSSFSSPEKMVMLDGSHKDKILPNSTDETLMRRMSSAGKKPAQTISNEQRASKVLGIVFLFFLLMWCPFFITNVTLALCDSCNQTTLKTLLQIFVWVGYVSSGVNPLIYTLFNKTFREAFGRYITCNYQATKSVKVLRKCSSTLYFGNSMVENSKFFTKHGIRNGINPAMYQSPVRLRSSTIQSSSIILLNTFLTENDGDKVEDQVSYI"}, "source": "BindingDB's records for doi:10.1038/sj.bjp.0703341", "about": "(Friedrich-Schiller-University Jena, 2000)", "molecular_target": "5-hydroxytryptamine receptor 2B (Rattus norvegicus, UniProt P30994)", "data": [{"smiles": "CN1C[C@@H](NS(=O)(=O)N(C)C)C[C@@H]2c3cccc4c3c(cn4C)C[C@H]21", "note": "[MESULERGINE]", "values": [{"measurement": "Ki", "value": 39.8, "unit": "nM"}]}]}
